The list shows a part of the results, in another mix than the full data. Records with an inconclusive call do not appear. Active and inactive are the calls of the source. The call rests on the fitted dose curve; in most records, active means well fitted inhibition curve with a large enough effect; inconclusive means small, poorly fitted or top-dose-only effect; inactive means flat fitted curve, though single readings scatter.

This assay concerns the target Luciferin 4-monooxygenase (Photuris pensylvanica) (UniProt Q27757). Put plainly: Secondary assay for Inhibitors of Human Pyruvate Kinase M2 isoform: FLuc Counterscreen. Conditions: Kinase-Glo firefly luciferase, luminescence, 8 min. The procedure:
NIH Chemical Genomics Center [NCGC] Matthew G. Vander Heiden, M.D., Ph.D. [Harvard Medical School, 77 Avenue Louis Pasteur, Boston, MA 02115] MLPCN Grant: 1 R03 MH085679-01 NCGC Assay Overview: Luciferase (Kinase-Glo, Promega Corporation) was assayed for its ability to generate light using ATP and luciferin as substrates. The ATP concentration in the assay (10 uM) was within the linear range of enzyme activity for the assay conditions used. This assay was used as an counter screen for human pyruvate kinase M2 isoform.
NCGC Assay Protocol Summary: Four uL of substrate mix (final concentration, 50 mM imidazole pH 7.2, 50 mM KCl, 7 mM MgCl2, 10 uM ATP, 0.01% Tween 20, 0.05% BSA) was dispensed into white 1536 well plates. Twenty-three nL of compound was delivered by a pin tool and 2 uL of luciferase detection mix (Kinase-Glo, Promega)) was added. Following 8-minute incubation at ambient temperature, luminescence was measured by a ViewLux (Perkin Elmer) at 5 seconds exposure/plate. Data were normalized to the controls for basal activity (DMSO only) and 100% inhibition (40 uM SIB 1757) and curve fitting was performed using Hill equation.
On the technique in general: Counterscreens check selectivity or assay interference.
With `Nc1ncnc2c1ncn2C1OC(COP(=O)(O)O)C(O)C1O` (configuration not stated), the Potency was active: 4.11 µM.
The same measure for `Nc1ncnc2c1ncn2[C@@H]1O[C@H](COP(=O)(O)O)[C@@H](O)[C@H]1O`: active: 5.17 µM.

These data come from PubChem BioAssay AID2265 (National Center for Advancing Translational Sciences (NCATS), 2010).
